One block for each binder: values may come before it.
Columns and labels:
[1] = target: T1, Homo sapiens QSOX1 (recombinant HsQSOX1) (Homo sapiens, UniProt O00391 33-546, limits assumed); test: oxygen consumption assay on DTT, 50 nM enzyme, fitted to a tight-binding inhibition model
T1 construct: Recombinant enzyme expressed as in Grossman et al. 2013; also called human QSOX1
T1 sequence: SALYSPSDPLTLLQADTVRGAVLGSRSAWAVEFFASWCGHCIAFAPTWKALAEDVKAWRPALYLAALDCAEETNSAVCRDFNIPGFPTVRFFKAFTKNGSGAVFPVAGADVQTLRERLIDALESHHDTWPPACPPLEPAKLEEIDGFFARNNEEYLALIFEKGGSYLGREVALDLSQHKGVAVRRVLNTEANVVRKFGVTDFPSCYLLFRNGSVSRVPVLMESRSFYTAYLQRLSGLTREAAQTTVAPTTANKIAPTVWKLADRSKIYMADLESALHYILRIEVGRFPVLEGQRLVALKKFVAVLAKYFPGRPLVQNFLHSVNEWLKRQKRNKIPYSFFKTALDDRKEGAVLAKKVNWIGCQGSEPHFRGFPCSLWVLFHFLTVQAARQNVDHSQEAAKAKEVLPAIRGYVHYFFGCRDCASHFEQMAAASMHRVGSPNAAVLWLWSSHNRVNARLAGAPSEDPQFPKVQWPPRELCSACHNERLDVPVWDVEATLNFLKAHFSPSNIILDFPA
Method: (§1) MmQSOX1 inhibition by MAb492gen was next quantified and compared to inhibition by the natural antibody MAb316.1. In one assay, MmQSOX1 activity was measured by the number of free thiols remaining at the end of the oxidation reaction of denatured and reduced RNase A. Various MAb492gen concentrations were scanned against two MmQSOX1 concentrations. In both cases the IC₅₀ values were similar to the MmQSOX1 concentration used in the assay (FIG. 3B), indicating tight-binding inhibition. In a second assay MmQSOX1 catalytic activity on DTT was measured using the oxygen consumption assay, providing data that were fitted to a model of tight-binding inhibition [Bieth, J. G. (1995) Methods Enzymol. 248: 59-84] to yield an inhibitory constant (Kᵢ) of 2.2±0.5 nM (FIG. 3C and Table 4, below).
(§2) A QSOX1-targeting antibody with dual species specificity, i.e., that inhibits HsQSOX1 as well as MmQSOX1, would be a valuable tool that could be used in animal models, and in turn, with minimal engineering, in clinical trials. […] In contrast, though no selection for binding of HsQSOX1 was performed during its development, MAb492gen retained tight-binding activity against HsQSOX1, having a Kᵢ value of 1.6±0.6 nM for HsQSOX1 (FIG. 7B and Table 4, above) compared to 0.9±0.1 nM previously measured for MAb492.1 [Grossman I. et al. (2013), supra].

[2] = target: T2, Mus musculus QSOX1 (recombinant MmQSOX1) (Mus musculus); test: as above
T2 chain: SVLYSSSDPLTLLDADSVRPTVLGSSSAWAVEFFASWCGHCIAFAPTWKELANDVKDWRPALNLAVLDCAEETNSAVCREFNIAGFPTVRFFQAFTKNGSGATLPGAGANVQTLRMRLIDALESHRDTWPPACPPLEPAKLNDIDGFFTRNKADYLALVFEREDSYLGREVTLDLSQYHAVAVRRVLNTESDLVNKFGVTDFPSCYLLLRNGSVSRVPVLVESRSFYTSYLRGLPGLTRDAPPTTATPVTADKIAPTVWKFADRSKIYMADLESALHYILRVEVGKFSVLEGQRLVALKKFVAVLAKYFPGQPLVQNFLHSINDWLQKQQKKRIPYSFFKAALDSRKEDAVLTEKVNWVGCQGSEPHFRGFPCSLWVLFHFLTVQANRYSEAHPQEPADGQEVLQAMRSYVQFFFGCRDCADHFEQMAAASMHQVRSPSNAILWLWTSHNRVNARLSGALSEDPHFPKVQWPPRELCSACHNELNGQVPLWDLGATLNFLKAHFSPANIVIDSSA
Method: as §1, §2

[3] = target: T3, biotinylated MmQSOX1Trx (Mus musculus, UniProt Q8BND5 36-275, Biotin on the lysine of the C-terminal AviTag (tag not in the letters); in early screening rounds pre-loaded with streptavidin-APC); test: yeast-surface display flow cytometry, mean APC fluorescence against MmQSOX1Trx concentration, binding isotherm
T3 construct: Used for yeast-surface display; in the first screening rounds pre-loaded with streptavidin-APC in a 1:4 molar ratio; also called MmQSOX1Trx with AviTag; not shown: purification tag
T3 sequence: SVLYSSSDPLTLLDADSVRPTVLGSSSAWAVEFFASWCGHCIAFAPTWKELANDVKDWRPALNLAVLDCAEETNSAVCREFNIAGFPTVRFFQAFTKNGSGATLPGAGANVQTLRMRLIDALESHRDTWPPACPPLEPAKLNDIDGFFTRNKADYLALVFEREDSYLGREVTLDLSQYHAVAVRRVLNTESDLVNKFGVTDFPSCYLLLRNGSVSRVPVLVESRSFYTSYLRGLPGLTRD
Method: FIGS. 3K-L illustrate histograms of red fluorescence (APC bound to streptavidin) representing MmQSOX1Trx binding at various concentrations to the surface of yeast displaying scFv492gen (FIG. 3K). […] For each histogram in FIG. 3K, the mean APC fluorescence was measured and plotted as function of MmQSOX1Trx concentration.
The scFv492.1 construct, without the His-tag and thrombin cleavage site [Grossman I. et al. (2013), supra], was cloned between the NdeI and BamHI sites in the yeast display plasmid pETCON [Fleishman S. J. et al. (2011) Science 332: 816-821]. Mutants of scFv492.1 were prepared on the basis of this plasmid by in vivo recombination in EBY 100 yeast using the LiAc method. Yeast growth and induction of scFv expression were carried out as previously described [Chao G. et al. (2006) Nat. Protoc. 1: 755-768], except that for induction 10 g raffinose per liter were added to the media and the cultures were grown for 16 hours at 20° C. Yeast were labeled with anti-cMyc (Santa Cruz Biotechnology) at a dilution 1:50 to monitor scFv expression, and with biotinylated MmQSOX1Trx (for concentrations see Table 3, below) for 45 minutes. […] Display of scFv clones and MmQSOX1Trx binding was monitored by Alexa 488 and APC fluorescence, respectively, using an Accuri C6 flow cytometer. […]

[4] = target: T2, Mus musculus QSOX1 (recombinant MmQSOX1); test: oxygen consumption assay on DTT, fitted to a tight-binding inhibition model
Method: as §1

Ki [1]: 1.6 nM | Ki [2]: 2.2 nM
B1: MAb492gen (antibody, V domains shown)
VH: QVQLKQSGPGLVAPSQSLSITCTVSGFSLTGYSVIWVRQSPGKGLEWLGMIWGDGRTEYKSALKSRLSITKDNSKSQVFLKMNSLQTDDTARYFCASDSMDPGSFAYWGQGTLVTVSA
VL: DVVMTQTHKFMSTSVGDRVSITCKASQDVSGAVAWYQQKSGQSPKLLISMASQRYTGVPDRFTGSGSGTDFTFTISSVQAEDLAVYYCQQHYAIPLTFGAGTKLELK
notes: Recombinant full-length antibody with the variable regions of scFv492gen in human IgG1 expression vectors, made in HEK 293T cells

Kd [3]: 65 nM
B2: scFv492gen (scFv, V domains shown)
VH: B1 VH
VL: B1 VL
notes: 12 mutations relative to scFv492.1; not shown: scFv linker and domain order; yeast display fusion partner and cMyc tag (pETCON)

Ki [4]: 16 nM
B3: MAb316.1 (antibody, V domains shown)
VH: QVQLQQSGPELVKPGASVKISCKASGYSFTSYYIHWVKQRPGQGLEWIGWIYPGSYNTEYSEKFKGKATLTADTSSSTAYMQLSSLTSEDSAVYYCARSEDWFAYWGQGTLVTVS
VL: QIVLTQSPAIMSASPGEKVTISCSASSSVSYMYWYHQKPGSSPKPWIYRTSNLASGVPARFSGSGSGTSYSLTISSMEAEDAATYYCQQYHSYPLTFGAGTKLELK
notes: Hybridoma antibody from QSOX1 knock-out mice immunised with MmQSOX1

From patent US20180273639A1 (YEDA RESEARCH AND DEVELOPMENT, published 2018)
